This note sets out measurements from ChEMBL document CHEMBL1134405 (J Med Chem, 2001).

This experiment deals with Adenylate cyclase (Rattus norvegicus) (UniProt D4A3N4+P26770+Q04400+P26769+Q03343+P40146+Q8CFM9+P21932). Briefly: Relative potency was evaluated by measuring potency for conversion of [alpha-32P]ATP to cyclic 3',5'-AMP relative to glucagon. It is filed as protein assay.

For the sequence GLUCAGON, the Relative potency is 100%.
